Data published in PMC9305987 (Nature cell biology, 2022).

Biological target: T1, mTET2^CD (Mus musculus, UniProt Q4JK59)
T1 sequence (Q4JK59 1042-1912 limits assumed): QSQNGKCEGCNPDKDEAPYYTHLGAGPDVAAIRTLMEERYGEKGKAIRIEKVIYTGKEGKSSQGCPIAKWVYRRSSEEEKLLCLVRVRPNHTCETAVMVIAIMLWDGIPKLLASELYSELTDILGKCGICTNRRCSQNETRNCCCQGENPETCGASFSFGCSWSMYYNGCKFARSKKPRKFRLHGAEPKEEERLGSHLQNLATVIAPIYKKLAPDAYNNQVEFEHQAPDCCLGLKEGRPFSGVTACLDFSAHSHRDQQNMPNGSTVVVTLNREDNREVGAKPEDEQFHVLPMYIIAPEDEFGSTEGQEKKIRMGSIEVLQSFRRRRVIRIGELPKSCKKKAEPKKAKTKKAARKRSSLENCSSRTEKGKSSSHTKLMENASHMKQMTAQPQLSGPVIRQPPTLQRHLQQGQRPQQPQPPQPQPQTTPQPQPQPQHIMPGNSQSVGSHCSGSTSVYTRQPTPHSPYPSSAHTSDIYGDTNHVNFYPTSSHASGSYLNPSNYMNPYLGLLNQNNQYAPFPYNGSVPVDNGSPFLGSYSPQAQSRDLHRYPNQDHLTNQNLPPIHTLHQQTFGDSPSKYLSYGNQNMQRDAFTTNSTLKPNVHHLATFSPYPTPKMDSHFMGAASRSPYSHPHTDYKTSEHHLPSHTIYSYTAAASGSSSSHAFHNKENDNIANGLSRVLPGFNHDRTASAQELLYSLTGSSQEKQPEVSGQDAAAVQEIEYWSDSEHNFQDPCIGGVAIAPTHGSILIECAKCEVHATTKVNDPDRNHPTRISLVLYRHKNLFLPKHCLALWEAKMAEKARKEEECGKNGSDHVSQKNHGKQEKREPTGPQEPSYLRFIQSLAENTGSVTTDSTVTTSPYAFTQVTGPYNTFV
Type: biochemical
Settings: read-out: IC50 toward mTET2^CD catalytic activity; 0.1 mM α-KG, 37°C 30 min

IC50: > 5 mM
Substance: succinate
